Measured values from ChEMBL document CHEMBL5725897, “Compounds” (2018).

The chains behind the UniProt entries cited, without tags or fusion partners. Residues count along the entry.
UniProt P56704, 19-352 limits assumed: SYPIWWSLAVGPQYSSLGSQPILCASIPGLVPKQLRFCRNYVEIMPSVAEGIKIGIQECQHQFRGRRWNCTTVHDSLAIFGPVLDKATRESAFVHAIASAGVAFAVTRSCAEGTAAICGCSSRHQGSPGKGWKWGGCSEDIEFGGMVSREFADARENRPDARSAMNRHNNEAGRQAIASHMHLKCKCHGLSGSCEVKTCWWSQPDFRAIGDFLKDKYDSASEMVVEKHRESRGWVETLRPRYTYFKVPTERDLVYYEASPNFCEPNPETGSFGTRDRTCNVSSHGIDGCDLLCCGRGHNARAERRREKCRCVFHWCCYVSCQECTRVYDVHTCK

Target: Protein Wnt-3a (Homo sapiens, UniProt P56704)

IC50 [µM] | SMILES
2.46 | COc1ccc(NC(=O)c2ncc(-c3ccccc3)o2)cc1NC(=O)CN1CCOCC1
0.133 | COc1ccc(C(=O)Nc2ccc(-c3ccccc3F)nc2)cc1NC(=O)CN1CC2CCC(C1)O2
0.0725 | O=C(CN1CCOCC1)Nc1cc(NC(=O)c2cc(-c3ccccc3)[nH]n2)ccc1OC(F)(F)F
